NALP1 inh – blocks the NALP1 inflammasome reconstituted in yeast; S. cerevisiae NALP1/ASC/caspase-1 growth, X-gal OD620, 72 h; inhibition, % at 10 µM; 280,000 tested, 0.61% active; in the data active = inhibition mostly above about 24%, no sharp cut-off; inactive = mostly below about 32%
MC4R barr agon – human MC4R agonism via beta-arrestin; U2OS MC4R beta-arrestin complementation, luminescence; percent of melanotan II response, DMSO zero; P32245; activation, % at 8.9 µM; 360,000 tested, 0.98% active;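 active = activation above a per-plate cutoff, the mean activation of sample wells on that plate plus 3 SD, cut at about 8% in these data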
HDAC3 inhib – inhibitors of human histone deacetylase 3; O15379; 320,000 tested, 0.15% active; recombinant HDAC3, fluorogenic peptide/trypsin coupled, fluorescence; inhibition, % at 8.3 µM; in the data active = inhibition above about 26%, passing the limit was not always enough; inconclusive = no clear call, values can overlap the other calls
Yeast UUG start – modulators of start codon recognition fidelity in yeast. S. cerevisiae UUG-firefly luciferase reporter, luminescence/redox ratio. activity score, % at 18.7 µM. 0.13% of 350,000 active. AID 602363;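 active = replicate mean at a twofold rise or more, about +100% in these data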;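 also: firefly luciferase made from a UUG start codon reports start codon fidelity; reporter light over untreated wells divided by growth signal over untreated wells; some hits fall short of that in this replicate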
ALR H2O2 inh – inhibitors of human sulfhydryl oxidase ALR; inhibition, % (no concentration beside the values); AID 485317; purified ALR, DTT oxidation, H2O2 HRP-luminol luminescence; 290,000 tested, 3.8% active; P55789;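 active means mean and each replicate at 75% or more; inconclusive means only one of the two met; inactive means neither met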;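 further: stock transfer was 7.5 nL into about 7.5 µL; 0% = neutral wells and 100% = wells with inactivated enzyme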
MC4R antagonist – human MC4R antagonism in cAMP assay; inhibition, % at 6.5 µM; 360,000 tested, 0.48% active; MC4R-expressing cells, MTII-stimulated cAMP, LANCE TR-FRET;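 active = inhibition above its plate's cutoff, the mean of tested wells on that plate plus 3 SD, cut at about 29% in these data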;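 note: 0% = Melanotan II alone and 100% = Melanotan II plus saturating MCL0020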
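material = U2OS cells stably expressing human melanocortin 4 receptor (MC4R) | also added = Melanotan II challenge | dosing = single nominal compound dose of 6.5 µM | detection = TR-FRET with Eu-cAMP and labeled anti-cAMP, 671 nm | replication = singlicate | timing = compound 30 min, challenge 1 h, detection 1 h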
U2OS cAMP counter – nonselective cAMP signaling inhibitor, MC4R antagonist counter-screen; inhibition, % at 6.5 µM; 1,600 tested, 26% active; parental U2OS, forskolin cAMP, LANCE TR-FRET; shares compounds with MC4R antagonist;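 active = mean inhibition over triplicates above the low-control well mean plus 3 SD, set per campaign, cut at about 13% in these data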;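 note: signal is single emission at 671 nm which falls as cellular cAMP rises; 0% = forskolin-stimulated wells and 100% = buffer without forskolin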
MC4R cAMP antag – human MC4R cAMP antagonism confirmation | inhibition, % at 6.5 µM | MC4R-expressing cells, MTII-stimulated cAMP, TR-FRET | shares compounds with MC4R antagonist | 1,600 tested, 27% active | AID 602195; in the data active = inhibition above about 29%;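 note: 0% = agonist stimulated wells alone and 100% = agonist stimulated wells plus saturating reference antagonist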
* marks the source's active call; other numbers are inactive results; ? = inconclusive; nt = no result. Rows were chosen to be rich in hits. Some 4.2% of all compounds tested hit in one or more screens of this group.

SMILES	NALP1 inh	MC4R barr agon	HDAC3 inhib	Yeast UUG start	ALR H2O2 inh	MC4R antagonist	U2OS cAMP counter	MC4R cAMP antag
O=C1ON=C(c2cccc([N+](=O)[O-])c2)/C1=C/c1ccc(O)cc1	-5	1	5	nt	61	38*	4	8
O=C(Cc1ccc(Cl)cc1)N/N=C1\CCCc2ccccc21	-13	2	-2	nt	-14	6	nt	nt
O=C(CNc1ccc(F)cc1)N/N=C1\CCCc2ccccc21	10	-1	-10	nt	1	30*	1	6
Cn1cnc(S(=O)(=O)N[C@@H]2CC[C@H](CC(=O)Nc3ccc(-c4ccccc4)cc3)O[C@H]2CO)c1	nt	nt	nt	-15	nt	nt	nt	nt
Cc1ccc(S(=O)(=O)Nc2nc(C)cc(NN)n2)cc1	nt	-1	-2	nt	2	29*	4	9
Cc1ccc(S(=O)(=O)Nc2nc(C)cc(NCCN)n2)cc1	-2	-1	2	-9	-3	-1	nt	nt
O=C(C[C@H]1C[C@H]2c3cc(NC(=O)Nc4ccccc4F)ccc3O[C@H]2[C@@H](CO)O1)NCc1cc(F)ccc1F	nt	nt	nt	11	nt	nt	nt	nt
CCOc1ccccc1/C=C(\C#N)C(=O)Nc1cccc(C(=O)O)c1	nt	0	nt	-6	8	38*	0	0
Cc1cc(C(=O)O)ccc1-n1c(C)cc(/C=C(/C#N)C(=O)Nc2ccccc2)c1C	-8	-1	12	nt	27	31*	-1	-1
O=C(O)CCC(=O)N1N=C(c2ccco2)CC1c1cccs1 (stereo not drawn)	33	-1	2	nt	2	6	nt	nt
O=C(O)CCC(=O)N1N=C(c2ccc(Br)cc2)CC1c1cccs1 (stereo not drawn)	5	-2	2	nt	1	30*	4	6
O=C(CCNC(=O)c1ccc([N+](=O)[O-])cc1)Nc1ccc(F)c(F)c1F	11	-1	5	-25	-4	32*	1	4

Rewritten with each value named: part of the list above
SMILES: Cc1cc(C(=O)O)ccc1-n1c(C)cc(/C=C(/C#N)C(=O)Nc2ccccc2)c1C
  NALP1 inh: -8
  MC4R barr agon: -1
  HDAC3 inhib: 12
  Yeast UUG start: nt
  ALR H2O2 inh: 27
  MC4R antagonist: 31*
  U2OS cAMP counter: -1
  MC4R cAMP antag: -1

SMILES: O=C(O)CCC(=O)N1N=C(c2ccco2)CC1c1cccs1 (stereo not drawn)
  NALP1 inh: 33
  MC4R barr agon: -1
  HDAC3 inhib: 2
  Yeast UUG start: nt
  ALR H2O2 inh: 2
  MC4R antagonist: 6
  U2OS cAMP counter: nt
  MC4R cAMP antag: nt

SMILES: O=C(O)CCC(=O)N1N=C(c2ccc(Br)cc2)CC1c1cccs1 (stereo not drawn)
  NALP1 inh: 5
  MC4R barr agon: -2
  HDAC3 inhib: 2
  Yeast UUG start: nt
  ALR H2O2 inh: 1
  MC4R antagonist: 30*
  U2OS cAMP counter: 4
  MC4R cAMP antag: 6

SMILES: O=C(CCNC(=O)c1ccc([N+](=O)[O-])cc1)Nc1ccc(F)c(F)c1F
  NALP1 inh: 11
  MC4R barr agon: -1
  HDAC3 inhib: 5
  Yeast UUG start: -25
  ALR H2O2 inh: -4
  MC4R antagonist: 32*
  U2OS cAMP counter: 1
  MC4R cAMP antag: 4

Next part:
SMILES	NALP1 inh	MC4R barr agon	HDAC3 inhib	Yeast UUG start	ALR H2O2 inh	MC4R antagonist	U2OS cAMP counter	MC4R cAMP antag
Cc1ccc(F)cc1NC(=O)CCNC(=O)c1ccc([N+](=O)[O-])cc1	-3	1	-3	-19	0	-4	nt	nt
CN1C(=O)c2cc(NC(=O)c3cccc(F)c3)ccc2OC[C@H]2O[C@@H](CC(=O)NCc3ccccc3Cl)CC[C@H]21	nt	nt	nt	-6	nt	nt	nt	nt
C=CCSc1nc2c(N)ncnc2n1C1OC(CO)C(O)C1O (stereo not drawn)	nt	-1	nt	-4	nt	31*	-3	-9
CCN(CC)S(=O)(=O)c1ccc(Cl)c(C(=O)OC2CC(C)OC2=O)c1 (stereo not drawn)	-19	2	4	-8	3	40*	9	20
C[C@H](CO)N1C[C@H](C)[C@H](CN(C)Cc2ccc(-c3ccccc3)cc2)Oc2ncc(C#CCN(C)C)cc2C1=O	nt	nt	nt	3	nt	nt	nt	nt
Cc1ccnc2nc(C(=O)OCC(=O)c3ccccc3)nn12	nt	1	7	-7	-3	10	nt	nt
Cc1ccc(S(=O)(=O)N2CCC[C@H]2C(=O)OCC(=O)N2CCc3ccccc32)cc1	nt	0	-16	4	-6	31*	8	16
Cc1ccnc2nc(C(=O)OCC(=O)N3CCc4ccccc43)nn12	11	-1	-2	nt	-5	34*	-6	-10
O=C(C[C@@H]1C=C[C@H](NC(=O)Nc2ccc(F)cc2)[C@H](CO)O1)NCc1cccc(F)c1	nt	nt	nt	-5	nt	nt	nt	nt
C[C@H](CO)N1C[C@H](C)[C@H](CN(C)S(C)(=O)=O)Oc2ncc(/C=C/c3ccccc3)cc2C1=O	nt	nt	nt	-16	nt	nt	nt	nt
CC(=O)Oc1ccc2nc(-c3ccc(Br)o3)oc(=O)c2c1	nt	1	?	-7	80*	32*	6	36*
CC(=O)Oc1ccc2c(=O)oc(-c3ccccc3)nc2c1	21	0	0	-23	0	15	nt	nt
COc1cc(/C=C2\C(=N)N3N=C(S(C)(=O)=O)SC3=NC2=O)cc(OC)c1OCCOc1ccc(C)cc1	0	-2	5	3	57	17	nt	nt
COc1cc(/C=C2\C(=N)N3N=C(S(C)(=O)=O)SC3=NC2=O)ccc1OCCOc1ccc(C)cc1	19	0	1	-18	?	34*	1	-10
CCOCCCNC(=O)N1CCOCC1	-8	0	4	40	-7	-2	nt	nt
O=C(NCCCCCCNC(=O)N1CCCCCC1)N1CCCCCC1	8	1	-1	-1	2	30*	-3	0
O=C(Nc1nccs1)c1cc2cc(Cl)ccc2oc1=O	nt	2	-3	-20	-6	33*	0	1
O=C(Nc1nccs1)c1ccc(Cl)cc1[N+](=O)[O-]	-2	-2	nt	2	-4	3	nt	nt
C[C@H](CO)N1C[C@H](C)[C@@H](CN(C)Cc2ccc(C(F)(F)F)cc2)Oc2ccc(N(C)C)cc2CC1=O	nt	nt	nt	-6	nt	nt	nt	nt
COc1ccccc1NC(=O)N1C[C@H](O)COC[C@@H]2O[C@H](CC(=O)NCCc3ccccc3)CC[C@H]21	nt	nt	nt	15	nt	nt	nt	nt
CCOc1ccc2c(ccc(/C=C/c3cc(C)c4cccnc4c3O)[n+]2C)c1	nt	1	nt	nt	nt	50*	-9	38*
O=c1c2c(-c3cccs3)csc2[nH]c(=S)n1-c1ccccc1	-12	-1	5	nt	90*	31*	18*	33*
O=c1c2c(-c3cccs3)csc2ncn1-c1ccccc1	8	1	-13	-8	-1	13	nt	nt
Oc1ccc(C(c2nnnn2CCc2ccccc2)N2CCN(c3nc4ccccc4s3)CC2)cc1 (stereo not drawn)	nt	-1	4	-14	-3	31*	2	13
COCCNC(=O)C[C@H]1CC[C@@H]2[C@@H](COc3ccc(NC(=O)Nc4ccccc4)cc3C(=O)N2C)O1	nt	nt	nt	1	nt	nt	nt	nt
